Data reported in ChEMBL document CHEMBL1145861, “Selective protein tyrosine phosphatase 1B inhibitors: targeting the second phosphotyrosine binding site with non-carboxylic acid-containing ligands” (J Med Chem, 2003).

Target: T1, Tyrosine-protein phosphatase non-receptor type 1 (Homo sapiens, UniProt P18031)
T1 sequence (P18031 whole entry): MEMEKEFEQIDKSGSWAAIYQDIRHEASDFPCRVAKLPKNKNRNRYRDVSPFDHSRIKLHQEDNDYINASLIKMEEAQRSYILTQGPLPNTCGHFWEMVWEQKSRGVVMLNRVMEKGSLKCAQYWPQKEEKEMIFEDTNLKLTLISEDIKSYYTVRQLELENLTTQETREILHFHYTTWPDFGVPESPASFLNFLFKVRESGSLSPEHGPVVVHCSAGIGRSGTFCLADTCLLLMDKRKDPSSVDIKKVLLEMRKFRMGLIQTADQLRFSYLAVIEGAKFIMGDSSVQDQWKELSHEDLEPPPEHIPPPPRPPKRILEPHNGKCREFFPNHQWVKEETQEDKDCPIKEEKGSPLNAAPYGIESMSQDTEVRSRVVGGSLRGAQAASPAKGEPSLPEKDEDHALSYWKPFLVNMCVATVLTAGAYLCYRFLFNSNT
Test: Inhibitory activity against Protein-tyrosine phosphatase 1B (PTP 1B) was determined

CCc1cc(CC(NC(C)=O)C(=O)NCCCCOc2cccc(O)c2C(=O)OC)ccc1N(C(=O)C(=O)O)c1ccccc1C(=O)O (stereo unspecified)
Ki: 18 nM
